Measurements as given in patent US8673347B2 (Creabilis Therapeutics S.p.A., priority 2005, dated 2014).

Molecular target: T1, MAP2K3 (Homo sapiens, UniProt P46734)
T1 sequence (P46734 1-347): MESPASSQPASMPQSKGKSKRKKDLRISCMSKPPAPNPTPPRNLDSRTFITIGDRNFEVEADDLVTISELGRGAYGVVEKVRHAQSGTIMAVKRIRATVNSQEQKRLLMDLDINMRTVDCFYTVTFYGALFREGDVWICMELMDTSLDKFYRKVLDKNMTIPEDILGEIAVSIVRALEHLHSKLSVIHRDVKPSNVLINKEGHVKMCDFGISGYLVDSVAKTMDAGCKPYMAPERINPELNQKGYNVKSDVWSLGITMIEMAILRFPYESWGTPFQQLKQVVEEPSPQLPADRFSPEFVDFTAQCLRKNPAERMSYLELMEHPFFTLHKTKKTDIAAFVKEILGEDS
Experiment: Kinase inhibition profile
Format: biochemical
Conditions: read-out: inhibitory activity

## COC(=O)[C@]1(O)C[C@@H]2O[C@@]1(C)n1c3ccccc3c3c4c(c5c6ccccc6n2c5c31)C(=O)NC4 [Compound K-252a, K-252a]
  inhibition at 0.2 µM: > 90%
